Measurements: patent US20240360179A1, “STAPLED PEPTIDES AND METHODS THEREOF” (FOG PHARMACEUTICALS, INC., priority 2021, published 2024)

Protein sequences, listed by entry. Tags and fused reporters are not part of them.
UniProt P35222, whole entry: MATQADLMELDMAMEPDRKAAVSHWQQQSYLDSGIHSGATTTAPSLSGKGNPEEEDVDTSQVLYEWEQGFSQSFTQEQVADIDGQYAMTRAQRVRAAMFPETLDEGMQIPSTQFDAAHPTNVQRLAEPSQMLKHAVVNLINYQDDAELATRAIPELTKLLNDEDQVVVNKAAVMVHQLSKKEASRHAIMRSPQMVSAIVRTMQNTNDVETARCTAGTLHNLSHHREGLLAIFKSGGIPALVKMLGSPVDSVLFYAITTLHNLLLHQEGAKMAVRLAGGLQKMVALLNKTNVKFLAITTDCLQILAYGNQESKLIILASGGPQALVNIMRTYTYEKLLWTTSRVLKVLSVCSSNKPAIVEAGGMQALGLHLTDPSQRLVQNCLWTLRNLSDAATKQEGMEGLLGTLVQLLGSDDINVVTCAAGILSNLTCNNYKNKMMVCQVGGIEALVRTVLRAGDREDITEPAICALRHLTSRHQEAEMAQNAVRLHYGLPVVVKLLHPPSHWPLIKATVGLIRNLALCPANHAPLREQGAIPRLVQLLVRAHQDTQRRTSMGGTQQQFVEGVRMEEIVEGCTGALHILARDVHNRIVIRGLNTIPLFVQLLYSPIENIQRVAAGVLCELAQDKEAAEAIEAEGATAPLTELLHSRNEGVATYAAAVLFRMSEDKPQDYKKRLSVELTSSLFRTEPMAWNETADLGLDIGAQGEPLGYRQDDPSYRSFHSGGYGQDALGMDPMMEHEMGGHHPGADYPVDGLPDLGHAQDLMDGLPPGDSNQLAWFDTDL

Legend:
[1] = target: beta-catenin/TCF4 interaction (Homo sapiens, UniProt P35222); experiment: cell-based; parameters: host or cells: HEK293; conditions: NanoBRET Abs IC50 (uM)
[2] = target: T1, full-length B-Catenin (Uniprot ID P35222) (Homo sapiens, UniProt P35222); experiment: biochemical; assay type: binding; conditions: beta-Catenin FP IC50 (nM), competition fluorescence polarization
T1 construct: 10 nM full-length B-Catenin (Uniprot ID P35222)

| Compound | IC50 ([1]; absolute IC50) [µM] | IC50 [2] [nM] | IC50 [1] [µM] |
| --- | --- | --- | --- |
| CC(=O)N1CCC[C@]12CC=CCCCC1(CCCC=CCCCOC(=O)N3CC[C@@]4(C3)NC(=O)[C@H](CCCCNC(=O)CC[C@@H](C(=O)N[C@@H](C)C(N)=O)NC(=O)[C@H](Cc3csc5ccccc35)NC(=O)[C@H](Cc3ccsc3)NC4=O)NC(=O)[C@H](Cc3ccccc3)NC(=O)[C@H](C)NC(=O)C(C)(C)NC(=O)[C@H](Cc3cccc(C(=O)O)c3)NC(=O)[C@H](CC(=O)O)NC1=O)NC(=O)[C@H](CC1CCC1)NC(=O)[C@H](CC(=O)O)NC2=O (relative stereo) [I-312, Ac-PL3-Asp-Cba-B5-Asp-3COOHF-Aib-Ala-Phe-Lys*3-PyrS2-3Thi-BztA-GlnR*3-Ala-NH2] | 1.5 to 3 | < 50 | – |
| CC(=O)N1CCC[C@]12CC=CCCCC1(CCCC=CCCCOC(=O)N3CC[C@@]4(C3)NC(=O)[C@H](CCCCNC(=O)CC[C@@H](C(=O)N[C@@H](C)C(N)=O)NC(=O)[C@H](Cc3csc5ccccc35)NC(=O)[C@H](Cc3ccccc3C(F)(F)F)NC4=O)NC(=O)[C@H](Cc3ccccc3)NC(=O)[C@H](C)NC(=O)C(C)(C)NC(=O)[C@H](CCc3ccc(O)cc3)NC(=O)[C@H](CC(=O)O)NC1=O)NC(=O)[C@H](CC(C)(C)C)NC(=O)[C@H](CC(=O)O)NC2=O (relative stereo) [I-217, Ac-PL3-Asp-Npg-B5-Asp-hTyr-Aib-Ala-Phe-Lys*3-PyrS2-2F3MeF-BztA-GlnR*3-Ala-NH2] | – | > 1000 | > 10 |
| CC(=O)N1CCC[C@]12CC=CCCCC1(CCCC=CCCCOC(=O)N3CC[C@@]4(C3)NC(=O)[C@@H](CCCCNC(=O)CC[C@@H](C(N)=O)NC(=O)[C@H](Cc3csc5ccccc35)NC(=O)[C@H](Cc3ccsc3)NC4=O)NC(=O)[C@H](Cc3ccccc3)NC(=O)[C@H](C)NC(=O)[C@H](C)NC(=O)[C@H](Cc3cccc(C(=O)O)c3)NC(=O)[C@H](CC(=O)O)NC1=O)NC(=O)[C@H](CC(C)C)NC(=O)[C@H](CC(=O)O)NC2=O (single isomer, unassigned) [I-9, Ac-PL3-Asp-Leu-B5-Asp-3COOHF-Ala-Ala-Phe-dLys*3-PyrS2-3Thi-BztA-GlnR*3-NH2] | – | < 50 | 3 to 10 |
| CC(=O)N1CCC[C@]12CC=CCCCC1(CCCC=CCCCOC(=O)N3CC[C@@]4(C3)NC(=O)[C@H](CCCCNC(=O)CC[C@@H](C(=O)N[C@@H](C)C(N)=O)NC(=O)[C@H](Cc3csc5ccccc35)NC(=O)[C@H](Cc3ccsc3)NC4=O)NC(=O)[C@H](CO)NC(=O)[C@H](C)NC(=O)C(C)(C)NC(=O)[C@H](Cc3cccc(C(=O)O)c3)NC(=O)[C@H](CC(=O)O)NC1=O)NC(=O)[C@H](CC(C)(C)C)NC(=O)[C@H](CC(=O)O)NC2=O (relative stereo) [I-363, Ac-PL3-Asp-Npg-B5-Asp-3COOHF-Aib-Ala-Ser-Lys*3-PyrS2-3Thi-BztA-GlnR*3-Ala-NH2] | > 10 | 50 to 200 | – |
| CC(=O)N1CCC[C@]12CC=CCCCC1(CCCC=CCCCOC(=O)N3CC[C@@]4(C3)NC(=O)[C@H](CCCCNC(=O)CC[C@@H](C(=O)N[C@@H](C)C(N)=O)NC(=O)[C@H](Cc3csc5ccccc35)NC(=O)[C@H](Cc3ccccc3Br)NC4=O)NC(=O)[C@H](Cc3ccccc3)NC(=O)[C@H](C)NC(=O)C(C)(C)NC(=O)[C@H](Cc3cccc(C(=O)O)c3)NC(=O)[C@H](CC(=O)O)NC1=O)NC(=O)[C@H](CC(C)(C)C)NC(=O)[C@H](CC(=O)O)NC2=O (relative stereo) [I-295, Ac-PL3-Asp-Npg-B5-Asp-3COOHF-Aib-Ala-Phe-Lys*3-PyrS2-2BrF-BztA-GlnR*3-Ala-NH2] | – | < 50 | < 1.5 |

Now from value to compound:

| IC50 ([1]; absolute IC50) [µM] | IC50 [2] [nM] | IC50 [1] [µM] | Compound |
| --- | --- | --- | --- |
| – | 200 to 750 | 3 to 10 | CC(=O)N1CCC[C@]12CC=CCCCC1(CCCC=CCCCOC(=O)N3CC[C@@]4(C3)NC(=O)[C@H](CCCCNC(=O)CC[C@@H](C(=O)N[C@@H](CC(C)C)C(=O)N[C@@H](CO)C(N)=O)NC(=O)[C@H](Cc3csc5ccccc35)NC(=O)[C@H](Cc3ccccc3C(F)(F)F)NC4=O)NC(=O)[C@H](Cc3ccccc3)NC(=O)[C@H](C)NC(=O)[C@H](C)NC(=O)[C@H](Cc3cccc(C(=O)O)c3)NC(=O)[C@H](CC(=O)O)NC1=O)NC(=O)[C@H](CC(C)(C)C)NC(=O)[C@H](CC(N)=O)NC2=O (relative stereo) [I-142, Ac-PL3-Asn-Npg-B5-Asp-3COOHF-Ala-Ala-Phe-Lys*3-PyrS2-2F3MeF-BztA-GlnR*3-Leu-Ser-NH2] |
| 1.5 to 3 | < 50 | – | CC(=O)N1CCC[C@]12CC=CCCCC1(CCCC=CCCCOC(=O)N3CC[C@@]4(C3)NC(=O)[C@H](CCCCNC(=O)CC[C@@H](C(=O)N[C@H](C(=O)NC(C)(C)C(N)=O)[C@@H](C)O)NC(=O)[C@H](Cc3csc5ccccc35)NC(=O)[C@H](Cc3ccsc3)NC4=O)NC(=O)[C@H](Cc3ccccc3)NC(=O)[C@H](C)NC(=O)C(C)(C)NC(=O)[C@H](Cc3cccc(C(=O)O)c3)NC(=O)[C@H](CC(=O)O)NC1=O)NC(=O)[C@H](CC(C)(C)C)NC(=O)[C@H](CC(=O)O)NC2=O (single isomer, unassigned) [I-411, Ac-PL3-Asp-Npg-B5-Asp-3COOHF-Aib-Ala-Phe-Lys*3-PyrS2-3Thi-BztA-GlnR*3-Thr-Aib-NH2] |
| > 10 | > 1000 | – | CC(=O)N1CCC[C@]12CC=CCCCC1(CCCC=CCCCOC(=O)N3CC[C@@]4(C3)NC(=O)[C@H](CCCCNC(=O)CC[C@@H](C(=O)N[C@@H](C)C(N)=O)NC(=O)[C@H](Cc3csc5ccccc35)NC(=O)[C@H](Cc3ccsc3)NC4=O)NC(=O)[C@H](Cc3ccccc3)NC(=O)[C@H](C)NC(=O)C(C)(C)NC(=O)[C@H](Cc3cccc(C(=O)O)c3)NC(=O)[C@H](CCCC(=O)O)NC1=O)NC(=O)[C@H](CC(C)(C)C)NC(=O)[C@H](CCCC(=O)O)NC2=O (relative stereo) [I-551, Ac-PL3-Aad-Npg-B5-Aad-3COOHF-Aib-Ala-Phe-Lys*3-PyrS2-3Thi-BztA-GlnR*3-Ala-NH2] |
| 1.5 to 3 | < 50 | – | CC(=O)N1CCC[C@]12CC=CCCCC1(CCCC=CCCCOC(=O)N3CC[C@@]4(C3)NC(=O)[C@H](CCCCn3cc(nn3)C[C@@H](C(=O)N[C@H](C(=O)N[C@@H](CO)C(N)=O)C(C)C)NC(=O)[C@H](Cc3csc5ccccc35)NC(=O)[C@H](Cc3ccsc3)NC4=O)NC(=O)[C@H](Cc3ccccc3)NC(=O)[C@H](C)NC(=O)C(C)(C)NC(=O)[C@H](Cc3cccc(C(=O)O)c3)NC(=O)[C@H](CC(=O)O)NC1=O)NC(=O)[C@H](CC(C)(C)C)NC(=O)[C@H](CC(=O)O)NC2=O (stereo partly drawn) [I-417, Ac-PL3-Asp-Npg-B5-Asp-3COOHF-Aib-Ala-Phe-TriAzLys*3-PyrS2-3Thi-BztA-sAla*3-Val-Ser-NH2] |
| – | 50 to 200 | > 10 | CC(=O)N1CCC[C@]12CC=CCCCC1(CCCC=CCCCOC(=O)N3CC[C@@]4(C3)NC(=O)[C@H](CCCCNC(=O)CC[C@@H](C(=O)N[C@@H](C)C(N)=O)NC(=O)[C@H](Cc3csc5ccccc35)NC(=O)[C@H](Cc3ccsc3)NC4=O)NC(=O)[C@H](Cc3ccccc3)NC(=O)[C@H](C)NC(=O)C(C)(C)NC(=O)[C@H](Cc3cccc(C(=O)O)c3)NC(=O)[C@H]([C@H](C)O)NC1=O)NC(=O)[C@H](CC(C)(C)C)NC(=O)[C@H](CC(=O)O)NC2=O (relative stereo) [I-169, Ac-PL3-Asp-Npg-B5-aThr-3COOHF-Aib-Ala-Phe-Lys*3-PyrS2-3Thi-BztA-GlnR*3-Ala-NH2] |
